Results published in patent publication US20130333059A1 (Johns Hopkins, published 2013).

Amino acid sequences for entries named in this document (tags omitted). Residues count along the entry.
UniProt P12956, 2-609 limits assumed, chain 1 of 2: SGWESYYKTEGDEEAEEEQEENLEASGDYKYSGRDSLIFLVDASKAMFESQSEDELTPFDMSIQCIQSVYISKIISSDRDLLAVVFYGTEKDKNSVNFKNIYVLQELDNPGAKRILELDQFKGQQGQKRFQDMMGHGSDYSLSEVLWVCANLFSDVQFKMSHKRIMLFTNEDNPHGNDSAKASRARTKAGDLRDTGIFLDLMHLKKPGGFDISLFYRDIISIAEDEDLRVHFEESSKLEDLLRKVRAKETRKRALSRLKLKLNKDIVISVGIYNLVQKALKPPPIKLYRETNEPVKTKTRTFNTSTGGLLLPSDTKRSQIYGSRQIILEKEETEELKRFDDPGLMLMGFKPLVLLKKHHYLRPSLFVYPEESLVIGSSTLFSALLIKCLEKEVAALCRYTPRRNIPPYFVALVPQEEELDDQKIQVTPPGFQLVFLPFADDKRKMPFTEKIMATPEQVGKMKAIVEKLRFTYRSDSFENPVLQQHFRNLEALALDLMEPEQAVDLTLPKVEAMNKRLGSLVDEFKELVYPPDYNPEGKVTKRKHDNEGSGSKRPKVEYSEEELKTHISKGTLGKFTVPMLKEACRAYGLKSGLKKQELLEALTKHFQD
Ku70/80, UniProt P13010, 2-732 limits assumed, chain 2 of 2: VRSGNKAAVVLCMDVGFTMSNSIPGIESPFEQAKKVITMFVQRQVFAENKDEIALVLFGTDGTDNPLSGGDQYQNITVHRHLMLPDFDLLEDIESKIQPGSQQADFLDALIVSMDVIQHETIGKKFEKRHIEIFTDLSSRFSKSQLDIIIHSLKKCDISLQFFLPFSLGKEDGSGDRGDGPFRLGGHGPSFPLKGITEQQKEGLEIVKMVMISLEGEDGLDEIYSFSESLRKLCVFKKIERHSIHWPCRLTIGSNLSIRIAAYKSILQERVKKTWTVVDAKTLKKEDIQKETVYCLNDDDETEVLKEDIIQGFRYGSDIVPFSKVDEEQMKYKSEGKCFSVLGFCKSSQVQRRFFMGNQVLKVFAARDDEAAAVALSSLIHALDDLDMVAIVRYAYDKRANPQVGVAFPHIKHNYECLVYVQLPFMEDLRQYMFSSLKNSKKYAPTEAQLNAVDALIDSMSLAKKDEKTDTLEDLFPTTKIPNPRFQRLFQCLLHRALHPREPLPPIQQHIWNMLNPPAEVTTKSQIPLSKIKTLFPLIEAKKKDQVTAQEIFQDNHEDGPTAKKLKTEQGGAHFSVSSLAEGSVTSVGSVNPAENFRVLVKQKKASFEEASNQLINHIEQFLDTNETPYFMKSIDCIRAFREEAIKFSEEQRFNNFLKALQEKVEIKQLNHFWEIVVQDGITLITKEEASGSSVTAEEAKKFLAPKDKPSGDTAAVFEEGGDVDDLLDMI

Target: Ku70/80 (human, UniProt P12956 2-609; P13010 2-732)
Assay: co-immunoprecipitation with anti-FLAG antibody from transfected SKBR3 cells, immunoblot
Description: Communoprecipitation. […] Complementary coimmunoprecipitation of HOXB7-YFP with its binding proteins was done with monoclonal antibodies to human DNA-PKcs and human Ku86 (clones H-163 and C-20, respectively; Santa Cruz Biotechnology) as described (12). To verify the interaction between endogenous HOXB7 with Ku70, Ku80, and DNA-PK under physiologic conditions and the effect of DNA depletion, 1 to 2 mg of whole cell lysates of MCF-7 (with or without ethidium bromide) were subjected to immunoprecipitation with Ku70 and Ku80 antibodies, the immune complexes were loaded onto 4% to 12% NuPAGE gels (Invitrogen) and immunoblotted with anti-HsKu70 (clone 2C3.11; Novus Biologicals), Ku86 (C-20; Santa Cruz Biotechnology), or anti-HOXB7 rabbit polyclonal antibodies (Invitrogen).
To define the region of HOXB7 that interacts with Ku70/80 proteins, full-length Fl-HOXB7 and HOXB7 with deletions of helix 3 of the homeodomain (HOXB7-Δh3) or of the glutamic acid tail (HOXB7-ΔGlu; FIG. 10B, top; ref. 11) were transfected into SKBR3 cells, and cell lysates were subjected to coimmunoprecipitation with FLAG antibody (FIG. 10B, bottom).

binding result: no binding
B1: HOXB7-Δh3 (other, UniProt P09629 1-217, looked up)
chain: MSSLYYANTLFSKYPASSSVFATGAFPEQTSCAFASNPQRPGYGAGSGASFAASMQGLYPGGGGMAGQSAAGVYAAGYGLEPSSFNMHCAPFEQNLSGVCPGDSAKAAGAKEQRDSDLAAESNFRIYPWMRSSGTDRKRGRQTYTRYQTLELEKEFHYNRYLTRRRRIEIAHTLCLTENKTAGPGTTGQDRAEAEEEEEE
notes: also called HOXB7 with deletion of helix 3 of the homeodomain; HOXB7 lacking helix 3; not shown: FLAG tag
